Measurements: patent US11795195B2, “Antibody-drug conjugates including hemiasterlin derivative” (Sumitomo Pharma Co., Ltd., priority 2017, dated 2023)

System: SK-BR-3 cells
Experiment: Cellular Toxicity Test (1) for ADCs
Type: cell-based, human
Details: SK-BR-3 (CD30 antigen-negative, HER2 antigen-positive cell line), 3 days
Protocol: Karpas-299 cells (ECACC), which are CD30 antigen-positive and HER2 antigen-negative, were cultured in RPMI 1640 (GIBCO) containing 10% fetal bovine serum (MP Biomedicals) (hereinafter, referred to as “culture medium A” in this test). In addition, SK-BR-3 cells (ATCC), which are CD30 antigen-negative and HER2 antigen-positive, were cultured in McCoy's 5A (GIBCO) containing 10% fetal bovine serum (MP Biomedicals) (hereinafter, referred to as “culture medium B” in this test). Karpas-299 cells and SK-BR-3 cells were prepared to be 2×10^6 cells/mL in culture medium A or culture medium B, and were added to a 96 well microplate for cell culturing in an amount of 50 μL for each well. After the addition, SK-BR-3 cells were cultured at 37 degree under 5% CO2 overnight. ADCs 4 times diluted with culture medium A or culture medium B in 8 stages were added to the microplate in an amount of 50 μL for each well, and Karpas-299 cells and SK-BR-3 cells were cultured at 37 degree under 5% CO2 for 4 days or 3 days, respectively. After culturing, the microplate was taken out from the incubator, and was left at rest at room temperature for 10 minutes. […] Using a microplate luminometer, luminescence was measured, thereby calculating the cell viability for each concentration of the ADC. The IC50 value was calculated in accordance with the method described in Test Example 1.

Question: “Comparative Example 2: Trastuzumab, a HER2 antigen-specific antibody, no modifying agent, average DAR 0” was tested. Which IC50 did it give?
Answer: The IC50 was over 6.6 nM.
